By UniProt entry, the sequences of proteins in these tests, tags left out.
ATP-dependent Clp protease proteolytic subunit (Bacillus subtilis (strain 168)), P80244, UniProt P80244, whole entry, looked up: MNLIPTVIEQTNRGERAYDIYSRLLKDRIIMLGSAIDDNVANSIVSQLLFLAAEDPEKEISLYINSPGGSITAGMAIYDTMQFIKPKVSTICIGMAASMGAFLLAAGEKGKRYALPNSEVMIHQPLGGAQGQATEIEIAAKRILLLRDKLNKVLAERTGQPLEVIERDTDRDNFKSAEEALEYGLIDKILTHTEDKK

# Nrf2 block: blocks Nrf2 signaling; A549 ARE-Fluc reporter, luciferase luminescence, 18-24 h; Potency, µM (top dose mostly 46 µM), for inactives: at the top dose activity change, negative = inhibition, hits mostly inhibitors; actives 2.1% (n = 360,000); note: potency is the fitted concentration of half-maximal effect; % is set by controls: 0 for no effect and ±100 for the full control effect; nearly all actives have a fitted effect of over 60% in size
#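 A549 ARE_Fluc cells (5000/well, 5% FBS OPTI-MEM) pre-incubated 2 h, then treated with compounds 18-24 h at 37C/5% CO2 in concentration-response. CellTiter-Fluor viability read first; BugLite luciferase luminescence after 15 min at room temperature gives Nrf2 activity.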
# TCR activator: T cell receptor activation; primary human leukocytes, anti-CD3, IL-2 HTRF, 48 h; Potency, µM (doses to about 9.22 µM), without a hit: at the top dose activation of IL-2 secretion, hits mostly activators; 330,000 tested, under 10 active; note: % of control where 0% means no effect
#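 TCR engagement came from a-CD3 beads alone, with compounds added to primary human leukocytes for 48 hr. Secreted IL-2 bridged europium cryptate- and d2-labelled anti-IL-2 antibodies, giving FRET emission at 665nm after 320nm excitation.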
# Nrf2 ARE act: Nrf2 pathway activation. AREc32 ARE-luciferase reporter (MCF7-derived line), luminescence, 24 h. Potency, µM (highest dose often 46.1 µM), for the others: at the top dose activation, most hits filed as activators. AID 624171. actives 0.31% (n = 410,000); note: potency is the fitted concentration of half-maximal effect; % of control where 0% means no effect; nearly all actives have a fitted effect of over 65% in size
#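 AREc32 cells carrying an ARE-driven firefly luciferase reporter were seeded at 1000 cells/well in OPTI-MEM with 5% FBS, then exposed to compound for 24 hr at 37 deg C. Luminescence was read with Steady-Glo after 30 min at RT.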
# A549 viability: A549 cytotoxicity, counter-screen for Nrf2 inhibitors; actives 0.16% (n = 390,000); Potency, µM (series often up to 46 µM), inactives show at the top dose activity change, negative = cytotoxicity, most hits filed as inhibitors; A549 ARE-Fluc cells, CellTiter-Fluor viability, 18-24 h; note: potency is the fitted concentration of half-maximal effect; % is set by controls: 0 for no effect and ±100 for the full control effect
#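 A549 ARE-Fluc cells in 5% FBS OPTI-MEM, 5000 cells/well, rested 2 h then exposed to compounds in concentration-response for 18-24 h at 37 °C. Viability by CellTiter-Fluor fluorescence (Ex 405/Em 525) after 30 min; luciferase luminescence (BugLite, 15 min, RT) read afterwards.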
# miR-21 reporter: raises the signal of a miR-21 reporter | HeLa miR-21 FLuc reporter, luciferase, 48 h | Potency, µM (doses to about 38.3 µM), for the others: at the highest dose reporter change, positive = more light | 340,000 tested, under 10 active | AID 2288; active = well fitted rising curve with a large enough effect; inconclusive = small, poorly fitted or top-dose-only effect; inactive = no such curve, though single readings can be large or run the other way;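 also: % of control where 0% means no effect; miR-21 action dims this reporter so a rising signal means less miR-21 action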
#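 Compounds were titrated across several concentrations (up to approximately 40 uM) and incubated 48 hours with HeLa miR-21-FLuc reporter cells (miR-21 target sequence downstream of FLuc, endogenous miR-21). Readout was firefly luciferase luminescence after lytic detection reagent.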
# ClpP mod: qHTS Assay for Activators of ClpP; Potency, µM (highest dose often 57.5 µM), without a hit: top-dose activity change, negative = active; purified B. subtilis ClpP, FRET peptide cleavage, 20 min; actives 1.9% (n = 340,000); ATP-dependent Clp protease proteolytic subunit (Bacillus subtilis (strain 168)), P80244; active = well fitted falling curve with a large enough effect; inconclusive = small, poorly fitted or top-dose-only effect; inactive = no such curve, though single readings can be large or run the other way; note: potency is the fitted concentration of half-maximal effect; the source files actives as falling curves though it sought activators and does not explain the sign; nearly all actives have a fitted effect of over 65% in size
#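 ClpP 10 microg/mL final, pH 8 Tris/KCl buffer with BSA, glycerol, Tween-20; compound pinned in; FRET-FV substrate; RT 20 min; Ex320/Em430; ΔFRET vs ADEP 5.8 microM, DMSO, no enzyme.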
# Active calls of the source: *; ? = inconclusive; . = not tested or not shown. A selection: hits, their analogues and other compounds. The true share with any hit is near 3.7%. Unless noted, calls come from the whole dose curve; as a rule, active = well fitted curve in the direction sought with a large enough effect; inconclusive = small, poorly fitted or top-dose-only effect, or another doubt; inactive = no such curve, though single readings can be large; an effect the other way counts as inactive or inconclusive.
(1) CCCc1c(C(=O)N/N=C(\C)c2ccccc2O)nnn1-c1nonc1N
(2) Cc1ccc(-c2c(C(=O)N/N=C/c3ccc(OC(C)C)cc3)nnn2-c2nonc2N)cc1
(3) CCCCOc1ccc(NC(=O)CN2CCN(Cc3ccccc3)CC2)cc1
(4) CCOc1ccc(-c2c(C(=O)N/N=C/c3ccc(C)s3)nnn2-c2nonc2N)cc1
(5) O=C(O)c1cccc(Nc2ccnc(Nc3cccc(C(=O)O)c3)n2)c1
(6) O=C(NC(=S)Nc1ccc(N2CCCCC2)c(Cl)c1)c1ccc2c(c1)OCCO2
(7) Cc1cc(N2CCN(c3ccccc3Cl)CC2)n2cc(-c3ccccc3)nc2n1
(8) Cc1cc(N2CCN(c3ccccc3)CC2)n2cc(-c3ccccc3)nc2n1
Compound | 1 | 2 | 3 | 4 | 5 | 6 | 7 | 8
Nrf2 block | . | 5.0% | -0.2% | 23.1µM* | 22.3% | 9.2µM* | ? | -24.2%
TCR activator | . | -2.5% | 9.3% | 2.8% | 2.3% | 6.4% | -2.3% | -3.2%
Nrf2 ARE act | -0.9% | -0.6% | 0.9% | -0.7% | -1.3% | 2.0% | 2.7% | 2.6%
A549 viability | . | 6.2% | -3.0% | -14.8% | 0.9% | -7.5% | ? | -2.6%
miR-21 reporter | . | -2.6% | 6.3% | -0.1% | -29.9% | 1.7% | 15.2% | 5.8%
ClpP mod | -0.2% | 28.2µM* | 0.6% | -20.3% | -9.2% | -0.4% | 14.1µM* | ?

# Three records picked at random from the list so far, as already listed:
(7) Cc1cc(N2CCN(c3ccccc3Cl)CC2)n2cc(-c3ccccc3)nc2n1
(3) CCCCOc1ccc(NC(=O)CN2CCN(Cc3ccccc3)CC2)cc1
(2) Cc1ccc(-c2c(C(=O)N/N=C/c3ccc(OC(C)C)cc3)nnn2-c2nonc2N)cc1
Compound | 7 | 3 | 2
Nrf2 block | ? | -0.2% | 5.0%
TCR activator | -2.3% | 9.3% | -2.5%
Nrf2 ARE act | 2.7% | 0.9% | -0.6%
A549 viability | ? | -3.0% | 6.2%
miR-21 reporter | 15.2% | 6.3% | -2.6%
ClpP mod | 14.1µM* | 0.6% | 28.2µM*

# (continued)
(9) C=CCSc1nnc(-c2sc(-c3ccccc3)nc2C)n1C
(10) CC1CCN(C(=O)CSc2nnc3ccc(-c4cccnc4)nn23)CC1
(11) CC(C)(C)CNc1nc(C#N)nc(Nc2ccccc2)n1
(12) Cc1nc(N)nc(N)c1-c1ccc([N+](=O)[O-])cc1
(13) O=S(=O)(c1ccccc1)c1nnn2c1nc(NCc1ccccc1)c1cc(Cl)ccc12
(14) COc1ccnc(Oc2cccc(C(F)(F)F)c2)c1C(=O)N/C=N/OCc1ccccc1F
(15) CCCCOC(=O)c1ccc(NS(=O)(=O)c2c(C)nc3scc(C)n3c2=O)cc1
(16) CC(=O)Oc1ccccc1-c1nc(/C=C/c2ccccc2)no1
Compound | 9 | 10 | 11 | 12 | 13 | 14 | 15 | 16
Nrf2 block | 12.4% | ? | 18.4µM* | ? | 7.5% | 20.6µM* | 16.4µM* | ?
TCR activator | 1.8% | 6.5% | . | -2.4% | . | -1.2% | . | -22.6%
Nrf2 ARE act | 0.8% | 0.5% | . | 0.6% | 2.0% | 2.1% | 5.6% | 11.2µM*
A549 viability | -4.8% | -13.1% | ? | -6.8% | -6.3% | -14.2% | -8.6% | 0.2%
miR-21 reporter | -51.6% | . | . | . | -1.7% | -0.2% | 21.4% | -41.3%
ClpP mod | 35.5µM* | -1.4% | . | 1.4% | ? | . | -5.1% | ?

(17) O=[N+]([O-])c1ccc(N/N=C/c2c[nH]c3ccccc23)c(S(=O)(=O)Nc2ccc(Cl)cc2)c1
(18) O=S(=O)(c1ccc(-c2cnc(C3CC3)o2)cc1)N1CCN(c2ccccc2F)CC1
(19) Cc1ccc(Cl)cc1N1CCN(S(=O)(=O)c2ccc(-c3cnc(C4CC4)o3)cc2)CC1
(20) COc1ccc(C(=O)N(Cc2ccco2)Cc2ccco2)c(O)c1
(21) CCCN1CCN(c2cc3c(cc2F)c(=O)c(S(=O)(=O)c2ccc(CC)cc2)cn3CC)CC1
(22) Cn1c2ccccc2c2nnc(SCC(N)=O)nc21
(23) Cn1c2ccccc2c2nnc(SCCOc3ccccc3)nc21
(24) CCn1nc(C)c2c(-c3ccccc3)cc(=O)n(C(C)C(=O)NCCc3ccccc3)c21 (stereo unspecified)
Compound | 17 | 18 | 19 | 20 | 21 | 22 | 23 | 24
Nrf2 block | 14.6µM* | . | . | 12.1% | ? | -6.4% | 5.17µM* | 18.4µM*
TCR activator | -0.3% | . | . | . | . | 5.2% | . | .
Nrf2 ARE act | 0.0% | -0.1% | 0.0% | . | 5.5% | 3.4% | . | 5.3%
A549 viability | 20.6µM* | -5.8% | -7.2% | 6.7% | ? | 11.9% | -10.0% | -11.1%
miR-21 reporter | 6.0% | 0.8% | 20.5% | . | -18.1% | -9.4% | . | 3.2%
ClpP mod | -2.4% | 28.2µM* | 3.8% | . | ? | -1.0% | 5.2% | 4.6%

(25) COc1cc(OC)c(NC(=O)C(C)n2c(=O)cc(-c3ccccc3)c3c(C)nn(C)c32)cc1Cl (stereo unspecified)
(26) CC(C)CNc1ncnc2oc(-c3ccco3)c(-c3ccco3)c12
(27) CCOC(=O)c1c(C)[nH]c(C(=O)N2CCc3cc(OC)c(OC)cc3C2)c1C
(28) O=C(c1ccc([N+](=O)[O-])o1)N1CCc2ccccc2C1
(29) COc1cc2c(cc1OC)CN(C(=O)c1ccc([N+](=O)[O-])o1)CC2
(30) Cc1ccc(Cl)cc1NS(=O)(=O)c1cc2c(cc1Cl)CCC(=O)N2
(31) CC(C)Cn1c(N)c(C(=O)COC(=O)c2ccc(O)cc2)c(=O)n(C)c1=O
(32) Cc1nn(-c2ccccc2)c(C)c1C(=O)OCC(=O)c1c(N)n(CC(C)C)c(=O)n(C)c1=O
Compound | 25 | 26 | 27 | 28 | 29 | 30 | 31 | 32
Nrf2 block | ? | 16.4µM* | 23.1µM* | ? | 1.2% | -25.0% | -8.2% | 5.8µM*
TCR activator | . | . | -4.7% | -1.0% | 1.4% | . | -2.6% | 3.0%
Nrf2 ARE act | 0.1% | . | 3.7% | 10.9% | 12.6µM* | . | -0.3% | -0.7%
A549 viability | -0.8% | -13.8% | ? | -12.6% | ? | 10.5% | 0.3% | ?
miR-21 reporter | 8.4% | . | . | 19.4% | 12.4% | . | 9.2% | 27.7%
ClpP mod | 31.6µM* | 4.4% | -5.3% | -2.3% | . | . | 0.8% | 1.1%

(33) CCC(C(=O)OCC(=O)c1c(N)n(CC(C)C)c(=O)n(C)c1=O)c1ccccc1 (stereo unspecified)
(34) CC(C)Cn1c(N)c(C(=O)COC(=O)c2cc(-c3ccccc3)nc3ccccc23)c(=O)n(C)c1=O
(35) COc1ccc(CCC(=O)OCC(=O)c2c(N)n(CC(C)C)c(=O)n(C)c2=O)cc1
(36) CC(C)Cn1c(N)c(C(=O)COC(=O)c2cc(C3CC3)nc3ccccc23)c(=O)n(C)c1=O
(37) Cc1[nH]c(=O)[nH]c(=S)c1C(=O)Nc1ccc(Cl)c(Cl)c1
(38) COc1ccc(C2Nc3ccccc3C(=O)N2Cc2ccccc2)cc1COc1ccc(NC(=O)c2ccccc2)cc1 (stereo unspecified)
(39) CCCCn1c(N)c(N(CCOC)C(=O)c2oc3c(Cl)cccc3c2C)c(=O)[nH]c1=O
(40) Cc1cccc(C)c1NC(=O)c1ccc2nc(CCc3ccccc3)oc2c1
(41) O=[N+]([O-])c1ccc(S(=O)(=O)Nc2ccc(S(=O)(=O)N3CCCC3)cc2)cc1
(42) CC(=O)c1c(C)[nH]c(C(=O)OCC(=O)c2c(N)n(C)c(=O)n(C)c2=O)c1C
(43) CC(C)Cn1c(N)c(C(=O)COC(=O)C2Cc3ccccc3CN2S(C)(=O)=O)c(=O)n(C)c1=O (stereo unspecified)
Compound | 33 | 34 | 35 | 36 | 37 | 38 | 39 | 40 | 41 | 42 | 43
Nrf2 block | 23.1µM* | ? | 23.1µM* | ? | 4.1% | -9.1% | . | . | ? | . | 20.6µM*
TCR activator | -1.8% | 2.9% | 1.6% | -1.3% | -5.8% | . | . | . | 0.5% | . | 4.7%
Nrf2 ARE act | -0.5% | 2.5% | -0.3% | -3.2% | 3.4% | . | -0.8% | 4.1% | 3.7% | . | 2.1%
A549 viability | -16.3% | -6.5% | -11.4% | -29.3% | -1.6% | -2.1% | . | -2.5% | 0.1% | . | -10.3%
miR-21 reporter | . | -0.4% | 4.7% | 21.6% | . | . | . | 19.1% | -0.3% | -1.7% | .
ClpP mod | -0.9% | -6.3% | -2.3% | 25.1µM* | 1.0% | . | 0.7% | -6.6% | . | . | -5.5%

# Compound activity from PubChem BioAssay.
